Experimental findings from patent US4980377A, “1-(aminophenyl)-2-aminopropanone derivatives” (Laboratoire L. Lafon, priority 1984, dated 1990) are described below.

The subject of this assay is nigrostriatal dopaminergic system. The experiment in a line: Interaction with alpha-methyltyrosine on stereotypies (difference from amphetamine). The conditions noted are these: α-methyltyrosine (catecholamine synthesis blocked).

For the compound `CC(NC(C)(C)C)C(=O)c1ccc(N)cc1` (stereo not shown) [CRL 41 178], the “Effect of alpha-methyltyrosine on the stereotypies induced by the substance” value is “at least partially involved in the mechanism which underlies the stereotypies induced by CRL 41 178”.
